Earlier results on one substance are cited in US4198507A.

For this series the following is noted: prior art; cited from earlier work.

Consider theobromine calcium salicylate, for which the “water solubility (in words)” value is “insoluble”.
